From publication PMC4111509 (PLoS ONE, 2014)

Legend:
Test in all cases: purified protein
[1] = tested on: Oc1ccc(CCNCc2ccc(O)c(O)c2)cc1; conditions: AdoMet co-substrate, glycine pH 8.8, 5 mM MgCl2, 37°C, Pfs nucleosidase added to remove SAH
[2] = tested on: C[S+](CC[C@H](N)C(=O)O)C[C@H]1O[C@@H](n2cnc3c(N)ncnc32)[C@H](O)[C@@H]1O; conditions: norbelladine as saturated substrate, glycine pH 8.8, 5 mM MgCl2, 37°C, Pfs nucleosidase added to remove SAH
[3] = tested on: CN(CCc1ccc(O)cc1)Cc1ccc(O)c(O)c1; conditions: AdoMet co-substrate, glycine pH 8.8, 5 mM MgCl2, 37°C, Pfs nucleosidase added to remove SAH

NpN4OMT1 (Narcissus aff. pseudonarcissus MK-2014)
Km [1]: 1.6 ± 0.3 µM
kcat [1]: 0.0217 s⁻¹
kcat/Km [1]: 13300 M⁻¹ s⁻¹
Km [2]: 28.5 ± 1.6 µM
kcat [2]: 0.075 s⁻¹
kcat/Km [2]: 2670 M⁻¹ s⁻¹
Km [3]: 1.9 ± 0.4 µM
kcat [3]: 0.0433 s⁻¹
kcat/Km [3]: 21700 M⁻¹ s⁻¹
